According to paper PMC8807614 (Scientific Reports, 2022):

Target: T1, human prolactin releasing peptide receptor (GPR10) (Homo sapiens, UniProt P49683)
T1 sequence (P49683 1-370): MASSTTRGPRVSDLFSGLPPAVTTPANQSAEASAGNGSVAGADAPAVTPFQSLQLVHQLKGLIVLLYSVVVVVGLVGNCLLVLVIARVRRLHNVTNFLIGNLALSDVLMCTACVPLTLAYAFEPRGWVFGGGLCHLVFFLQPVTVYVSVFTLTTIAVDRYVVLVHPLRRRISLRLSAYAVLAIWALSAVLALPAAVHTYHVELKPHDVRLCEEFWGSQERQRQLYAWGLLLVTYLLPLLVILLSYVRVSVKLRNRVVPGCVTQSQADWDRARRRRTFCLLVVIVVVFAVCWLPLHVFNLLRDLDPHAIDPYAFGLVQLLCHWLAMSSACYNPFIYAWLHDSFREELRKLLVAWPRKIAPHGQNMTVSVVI
Assay: GPR10 functional activity assay (IP1, HTRF)
Type: cell-based
Conditions: Chem-1 cells stably expressing human GPR10, 10.000 cells/well; HTRF IP1 (CisBio); 30 min at 37 °C; IP1 stimulation buffer with 0.05% casein; 11 concentrations
Protocol: Figure 3 GPR10 and NPFF2R profiling of in vivo metabolites of GUB03385. (a) IP1 measurement in human GPR10 Chem 1 cells (HTRF technology, CisBio) after 30 min. incubation at 37 °C with metabolites and the native peptide PrRP31. (b) cAMP measurements in human NPFF2R CHO-K cells (HTRF technology, CisBio) at a fixed concentration of 3 µM forskolin after 30 min. incubation at room temperature with metabolites and the native peptide NPSF. Representative curves of three determinations.
The Homogenous Time Resolved Fluorescence (HTRF) technology optimized for Gq coupled receptors has thoroughly been described in the CisBio IP1 kit manual (#62IPAPEC) and in the cAMP assay kit manual for Gi coupled receptors (#62AM9PEC). […] After addition of HTRF® detection reagents and incubation with shaking (2400 rpm) for one hour at room temperature signals at 620 and 665 nm (raw counts: ratio of 665/620) were detected at a ClarioStar plate reader (BMG Labtech, Ortenberg, Germany). Concentration–response evaluation of compounds was performed with 11 concentrations of agonist peptides (covering 3 decades) and EC50 values were calculated by nonlinear regression using sigmoid concentration–response with variable slope. Data were analysed using GraphPad v9.1 software (GraphPad, La Jolla, CA).

## CC[C@H](C)[C@H](NC(=O)CNC(=O)[C@H](CCCNC(=N)N)NC(=O)[C@H](CO)NC(=O)[C@H](C)NC(=O)[C@H](Cc1ccc(O)cc1)NC(=O)[C@H](Cc1c[nH]c2ccccc12)NC(=O)[C@H](C)NC(=O)[C@@H]1CCCN1C(=O)[C@H](CC(N)=O)NC(=O)[C@@H](NC(=O)[C@H](CC(=O)O)NC(=O)[C@@H]1CCCN1C(=O)[C@@H](NC(=O)[C@H](CCCNC(=N)N)NC(=O)[C@@H](NC(=O)[C@H](CCC(=O)O)NC(=O)[C@H](CCSC)NC(=O)[C@H](CO)NC(=O)[C@H](Cc1c[nH]cn1)NC(=O)[C@H](CCCNC(=N)N)NC(=O)[C@H](Cc1c[nH]cn1)NC(=O)[C@@H](NC(=O)[C@H](CCCNC(=N)N)NC(=O)[C@@H](N)CO)[C@@H](C)O)[C@@H](C)CC)[C@@H](C)O)[C@@H](C)CC)C(=O)N[C@@H](CCCNC(=N)N)C(=O)N1CCC[C@H]1C(=O)N[C@H](C(=O)NCC(=O)N[C@@H](CCCNC(=N)N)C(=O)N[C@@H](Cc1ccccc1)C(N)=O)C(C)C [PrRP31]
  EC50: 200 pM
